Bioassay records (PubChem BioAssay)
Rows were chosen to be rich in hits. Some 0.43% of all compounds tested hit in one or more screens of this group.
EPAC2 ag = EPAC2 (human) agonism | Q8WZA2 | EPAC2 activation, biochemical qHTS; response scale: 100% = 6.5 mM cAMP response | Potency, µM (titrated, usually from 154 µM), for inactives: at the top dose activation, hits mostly activators | 360,000 compounds, 0.079% hits; note: nearly all actives have a fitted effect of over 50% in size
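Fluorescence exchange assay: 100 nM EPAC2 with 250 nM RAP1B-BODIPY-GDP and 50 uM GDP; compounds tested as a concentration-titration series (qHTS). Loss of Rap1-bound BODIPY-GDP fluorescence read at 480/540 nm; data normalized to 6.5 mM cAMP.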
EPAC2 antag = EPAC2 (human) antagonism; Q8WZA2; EPAC2 GEF exchange of Rap1B-BODIPY-GDP, fluorescence; Potency, µM (titrated, usually from 114 µM), for the others: top-dose activity, negative = inhibition, usual class: inhibitors; 360,000 compounds, 0.18% hits; AID 720708; note: % is set by controls: 0 for no effect and ±100 for the full control effect; nearly all actives have a fitted effect of over 45% in size
Rango complex inh = Rango-importin beta binding inhibition | 340,000 compounds, 0.031% hits | Potency, µM (titrated, usually from 92.2 µM), for the others: at the top dose inhibition of complex formation | Rango CFP/YFP FRET sensor + importin beta, 45 min | Q14974; calls by dose curve;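 note: 0% = DMSO wells and 100% = buffer wells lacking importin beta; nearly all actives have a fitted effect of over 15% in size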
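FRET biosensor (snurportin 1 IBB flanked by EYFP and cerulean), 50 nM, with compound 5 min, then 0.125 microM importin beta in PBS, 1 mM DTT, 0.02% Tween-20, 0.1% BSA. CFP/YFP ratio read after 45 min at room temperature; pre-read flags interference.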
Rango release inh = prevents RanGTP from dissociating the Rango-importin beta complex; O95149+P62826; Biochemical FRET Rango-importin beta, RanGTP-induced dissociation; Potency, µM (titrated, usually from 46.1 µM), inactives show top-dose activity change, negative = inhibition; 340,000 compounds, 0.071% hits; calls by dose curve; note: % of control where 0% means no effect; nearly all actives have a fitted effect of over 45% in size
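Quantitative HTS using a FRET biosensor: 0.1 uM Rango, 0.25 uM importin beta, 0.6 uM Ran, 2 mM GTP, 0.2 uM RCC1 final, PBS with DTT, Tween-20 and BSA. Post-read taken 45 min after Ran addition.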
EPAC1 antagonist = blocks human EPAC1 exchange factor. O95398. AID 720709. Potency, µM (top dose mostly 115 µM), without a hit: at the highest dose activity change, negative = inhibition, hits mostly inhibitors. 360,000 compounds, 0.14% hits. EPAC1 GEF assay, Rap1b-BODIPY-GDP exchange fluorescence;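 note: plate controls were vehicle for no effect and positive control for full effect; nearly all actives have a fitted effect of over 50% in size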
EPAC1 ag = activates human EPAC1 exchange factor; O95398; EPAC1 agonist qHTS, biochemical assay; response scale: 100% = response to 6.5 mM cAMP; Potency, µM (highest dose often 154 µM), for the others: at the top dose activation, most hits filed as activators; 360,000 compounds, 0.073% hits; note: nearly all actives have a fitted effect of over 60% in size
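Nucleotide exchange assay: 100 nM EPAC1 with 250 nM Rap1B loaded with BODIPY-GDP and 50 uM GDP, room temperature. Fluorescence (480/540 nm) read every 5 min for 30 min; signal change normalized to 6.5 mM cAMP as full agonist.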
The depositor's hits bear a star. Unless noted, calls come from the whole dose curve; as a rule, active = well fitted curve in the direction sought with a large enough effect; inconclusive = small, poorly fitted or top-dose-only effect, or another doubt; inactive = no such curve, though single readings can be large; an effect the other way counts as inactive or inconclusive. Potency is the fitted concentration of half-maximal effect.

For O=C1NC(=Nc2ccccc2Cl)S/C1=C\c1cc([N+](=O)[O-])ccc1O the results were EPAC2 ag -10%, EPAC2 antag 18µM*, Rango complex inh inconclusive, Rango release inh inconclusive, EPAC1 antagonist 79µM* and EPAC1 ag -21%.
Screening Cc1ccc(S(=O)(=O)N2C[C@H]3N(C(=O)OC(C)C)N(C(=O)OC(C)C)C[C@H](OC(=O)NC4CCCC4)[C@@]3(O)C2)cc1 returned EPAC2 ag 13%, EPAC2 antag -8%, EPAC1 antagonist 1% and EPAC1 ag -22%.
`CCN(CC)C(=O)Cn1cc(C(=O)C(=O)N2CC=C(c3ccccc3)CC2)c2ccccc21` gave EPAC2 ag 13%, EPAC2 antag 2%, Rango complex inh 37µM*, Rango release inh -1%, EPAC1 antagonist -4% and EPAC1 ag -4%.
`CCN(CC)C(=O)Cn1cc(C(=O)C(=O)N2CCN(C)CC2)c2ccccc21` gave EPAC2 ag 2%, EPAC2 antag 0%, Rango complex inh 1%, Rango release inh 2%, EPAC1 antagonist -14% and EPAC1 ag -1%.
For O=C(O)c1cc(O)c2c(c1)[C@@H]([C@H]1c3cc(C(=O)O)cc(O)c3C(=O)c3c(O[C@@H]4O[C@H](CO)[C@@H](O)[C@H](O)[C@H]4O)cccc31)c1cccc(OC3O[C@H](CO)[C@@H](O)[C@H](O)[C@H]3O)c1C2=O (stereo not given in full) the results were EPAC2 ag 8%, EPAC2 antag inconclusive, Rango complex inh inconclusive, Rango release inh 10%, EPAC1 antagonist inconclusive and EPAC1 ag 5%.
For O=C(O)c1cc(O)c2c(c1)[C@H]([C@H]1c3cc(C(=O)O)cc(O)c3C(=O)c3c(O[C@@H]4O[C@H](CO)[C@@H](O)[C@H](O)[C@H]4O)cccc31)c1cccc(OC3O[C@H](CO)[C@@H](O)[C@H](O)[C@H]3O)c1C2=O (stereo not given in full) the results were EPAC2 ag 2%, EPAC2 antag inconclusive, Rango complex inh inconclusive, Rango release inh 18µM*, EPAC1 antagonist 3.5µM* and EPAC1 ag -8%.
For O=C(COC(=O)c1ccc2[nH]c3c(c2c1)CCCC3)Nc1ccccc1 the results were EPAC2 ag 0%, EPAC2 antag 2%, Rango complex inh inconclusive, Rango release inh inconclusive, EPAC1 antagonist 10% and EPAC1 ag -7%.
`Cc1cccc(C)c1NC(=O)COC(=O)c1ccc2[nH]c3c(c2c1)CCCC3` gave EPAC2 ag 3%, EPAC2 antag 5%, Rango complex inh inconclusive, Rango release inh 23µM*, EPAC1 antagonist -5% and EPAC1 ag -9%.
Screening O=C(Nc1cccc(S(=O)(=O)NC2=NCCC2)c1)c1ccccc1OC(F)F returned EPAC2 ag 8%, EPAC2 antag 5%, Rango complex inh -4%, Rango release inh 5%, EPAC1 antagonist 5% and EPAC1 ag 6%.
`COc1ccc(CCNC(=O)CCC(=O)N2CCN(S(=O)(=O)c3ccccc3)CC2)cc1OC` gave EPAC2 ag 4%, EPAC2 antag -1%, Rango complex inh 0%, Rango release inh -17%, EPAC1 antagonist -4% and EPAC1 ag -2%.

3 compounds already listed, arranged by molar mass, lowest first:
Screening O=C(Nc1cccc(S(=O)(=O)NC2=NCCC2)c1)c1ccccc1OC(F)F returned EPAC2 ag 8%, EPAC2 antag 5%, Rango complex inh -4%, Rango release inh 5%, EPAC1 antagonist 5% and EPAC1 ag 6%.
`COc1ccc(CCNC(=O)CCC(=O)N2CCN(S(=O)(=O)c3ccccc3)CC2)cc1OC` gave EPAC2 ag 4%, EPAC2 antag -1%, Rango complex inh 0%, Rango release inh -17%, EPAC1 antagonist -4% and EPAC1 ag -2%.
Screening Cc1ccc(S(=O)(=O)N2C[C@H]3N(C(=O)OC(C)C)N(C(=O)OC(C)C)C[C@H](OC(=O)NC4CCCC4)[C@@]3(O)C2)cc1 returned EPAC2 ag 13%, EPAC2 antag -8%, EPAC1 antagonist 1% and EPAC1 ag -22%.

The list goes on:
`CN(C)c1ccccc1-c1cc(NC=O)c2ncc(-c3cccc(C(F)(F)F)c3)n2c1` gave EPAC2 ag -18%, EPAC2 antag inconclusive, EPAC1 antagonist 32µM* and EPAC1 ag -121%.
`COc1ccccc1-c1cc(NC=O)c2ncc(-c3cccc(C(F)(F)F)c3)n2c1` gave EPAC2 ag -3%, EPAC2 antag -22%, EPAC1 antagonist -8% and EPAC1 ag 4%.
CCOc1ccccc1NC(=S)N1CCN(c2ccccc2)CC1 was read as EPAC2 ag 10%, EPAC2 antag -20%, Rango complex inh 0%, Rango release inh 11%, EPAC1 antagonist 7% and EPAC1 ag 13%.
CS(=O)(=O)N1CC(C(=O)NN)Oc2ccc(Cl)cc21 (stereo not given) was read as EPAC2 ag 3%, EPAC2 antag 2%, Rango complex inh -1%, Rango release inh -4%, EPAC1 antagonist -19% and EPAC1 ag 8%.
Screening COc1ccc(/C(N)=N/OC(=O)c2ccc(C)c([N+](=O)[O-])c2)cc1 returned EPAC2 ag 10µM*, EPAC2 antag 5%, Rango complex inh 2%, Rango release inh 35%, EPAC1 antagonist -4% and EPAC1 ag -4%.
`Cc1ccc(C2=N/C(=C\c3c(C)nn(-c4ccccc4)c3N3CCCC3)C(=O)O2)cc1` gave EPAC2 ag 100µM*, EPAC2 antag 36%, Rango complex inh 0%, Rango release inh -10%, EPAC1 antagonist 11% and EPAC1 ag -3%.
For Cc1nn(-c2ccccc2)c(N2CCCC2)c1/C=C1\N=C(c2ccc(F)cc2)OC1=O the results were EPAC2 ag inconclusive, EPAC2 antag 28%, Rango complex inh -1%, Rango release inh 7%, EPAC1 antagonist -1% and EPAC1 ag 2%.
Screening COc1ccccc1NS(=O)(=O)c1ccc(N/N=C/c2ccccc2OCC(=O)O)c([N+](=O)[O-])c1 returned EPAC2 ag 11%, EPAC2 antag -11%, Rango complex inh -1%, Rango release inh 15%, EPAC1 antagonist inconclusive and EPAC1 ag 3%.
For O=C(O)COc1ccccc1/C=N/Nc1ccc(S(=O)(=O)Nc2ccc(Cl)cc2)cc1[N+](=O)[O-] the results were EPAC2 ag -6%, EPAC2 antag 1%, Rango complex inh inconclusive, Rango release inh inconclusive, EPAC1 antagonist 22µM* and EPAC1 ag inconclusive.
NS(=O)(=O)c1ccc(N/N=C/c2ccccc2C(=O)O)c([N+](=O)[O-])c1 was read as EPAC2 ag 6%, EPAC2 antag -6%, Rango complex inh 4%, Rango release inh -14%, EPAC1 antagonist inconclusive and EPAC1 ag 4%.
For O=C(O)c1ccccc1NS(=O)(=O)c1ccc(NN=Cc2cccc(Cl)c2)c([N+](=O)[O-])c1 the results were EPAC2 ag -8%, EPAC2 antag inconclusive, Rango complex inh 2%, Rango release inh -1%, EPAC1 antagonist 50µM* and EPAC1 ag -3%.
Screening O=C(O)c1ccccc1NS(=O)(=O)c1ccc(NN=Cc2ccc(F)cc2)c([N+](=O)[O-])c1 returned EPAC2 ag 6%, EPAC2 antag -10%, Rango complex inh 0%, Rango release inh -1%, EPAC1 antagonist 50µM* and EPAC1 ag 4%.
